Rows were chosen to be rich in hits. Some 1.2% of all compounds tested hit in one or more screens of this group.
Yeast UUG start = alters start codon recognition fidelity in yeast; S. cerevisiae UUG-firefly luciferase reporter, luminescence/redox ratio; activity score, % at 18.7 µM; actives 0.13% (n = 350,000); AID 602363;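 active = replicate mean at a twofold rise or more, about +100% in these data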;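 also: firefly luciferase made from a UUG start codon reports start codon fidelity; reporter light over untreated wells divided by growth signal over untreated wells; some hits fall short of that in this replicate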
Rce1 inhib = yeast Ras-converting enzyme inhibition | Q03530 | yeast membranes, quenched prenylated peptide cleavage fluorescence | calls only | 0.27% of 290,000 active;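 active = fall in fluorescence gain of 50% or more versus controls, with final raw signal at or below 3038400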;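 also: plate controls were neutral control wells for no effect and wells lacking membranes for full effect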
Tb MetRS inh = blocks T. brucei methionyl-tRNA synthetase activity; purified T. brucei MetRS, ATP depletion, Kinase-Glo luminescence; inhibition, % at 11.9 µM; 0.4% of 360,000 active; AID 624268;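 active = inhibition above a per-plate cutoff of the control wells' mean inhibition plus 3 SD, cut at about 5.5% in these data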;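 also: 0% = DMSO wells median and 100% = median of wells with control inhibitor compound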
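Test system – parasite MetRS enzyme · Reagent – substrates ATP, L-methionine and bulk Escherichia coli tRNA · Doses – 11.9 µM compound single dose, 0.9% DMSO · Times – 15 min enzyme-compound preincubation, 2 h reaction, 10 min detection, 25 °C · Signal – Kinase-Glo luminescence, ATP depletion format · Controls – DMSO-only wells as low control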
Arrestin-AP2 inh = blocks beta-arrestin peptide binding to AP2 adaptin; FITC-arrestin peptide / GST-AP2 beads, flow cytometry; AP2 beta2 appendage carries R879A mutation; inhibition, % at 10 µM; 0.31% of 340,000 active; AID 504490;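 active = inhibition above a set limit, near 3 SD of compounds lacking own fluorescence, cut at about 54% in these data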;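 also: plate controls were DMSO wells for no effect and 5 µM unlabelled arrestin peptide for full effect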
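Assay system: GST-AP2 R879A bound to glutathione beads, E. coli-expressed; Medium: PBS with 0.05% Tween 20 and 0.1% BSA; Also added: fluorescein-tagged arrestin peptide at 50 nM final; Timing: 12 min plus 1 h, RT; Measured by: flow cytometry, FL1 (488/535 nm); Evaluation: percent drop in bead-associated FITC signal.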
Pemphigus Ab inh = blocks pemphigus antibody binding to human desmoglein-3; DSG3-coupled beads, scFv-anti-DSG3-GFP binding, flow cytometry; stronger effect = lower value; binding (percent of control), % at 10 µM; 0.48% of 310,000 active; AID 588358; P32926;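 active = binding more than 3 SD below its plate's average and above zero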;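 also: hits lower antibody fragment binding to DSG3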
Active calls of the source: *; i = inactive; x = no result given; + = active, no number.

The first 2 compounds, ahead of the listing:
No.	Compound	Yeast UUG start	Rce1 inhib	Tb MetRS inh
1	C[C@@H]1CN([C@H](C)CO)C(=O)c2cc(C#CC3(O)CCCC3)cnc2O[C@H]1CN(C)C(=O)Cc1cccnc1	-7	x	x
2	CCOC(=O)CN1C(=O)S/C(=C\c2ccc(-c3ccc(C(=O)O)c(Cl)c3)o2)C1=O	-15	i	-1

No.	Arrestin-AP2 inh	Pemphigus Ab inh
1	x	x
2	30	107

All compounds of this part, previewed entries included:
No.	Compound	Yeast UUG start	Rce1 inhib	Tb MetRS inh
1	C[C@@H]1CN([C@H](C)CO)C(=O)c2cc(C#CC3(O)CCCC3)cnc2O[C@H]1CN(C)C(=O)Cc1cccnc1	-7	x	x
2	CCOC(=O)CN1C(=O)S/C(=C\c2ccc(-c3ccc(C(=O)O)c(Cl)c3)o2)C1=O	-15	i	-1
3	O=C(O)c1ccc(-c2ccc(/C=C3\NC(=O)N(Cc4ccc(Cl)cc4)C3=O)o2)cc1Cl	3	i	0
4	Cc1noc(C)c1NC(=O)N[C@@H]1CC[C@@H](CCNC(=O)C2CC2)O[C@H]1CO	-9	x	x
5	COc1ccc(NC(=O)CSc2nc3ccccc3nc2N2CCCCC2)cc1	7	i	-1
6	COc1ccc(NC(=O)CSc2nc(N3CCCCC3)nc(N3CCCCC3)n2)cc1	-10	i	-1
7	Cc1cc(C(=O)NCC(=O)OCC(=O)N(C2CCCCC2)C2CCCCC2)ccc1[N+](=O)[O-]	x	i	0
8	Cc1cc(C(=O)NCC(=O)OCC(=O)NCC2CCCO2)ccc1[N+](=O)[O-] (stereo not given)	-6	x	0
9	O=C(NCC[C@H]1CC[C@@H](NC(=O)C2CC2)[C@@H](CO)O1)c1ccc(F)cc1	-23	x	x
10	Cc1ccc(-c2cnc3c(c2)C(=O)N([C@@H](C)CO)C[C@@H](C)[C@H](CN(C)CC2CCOCC2)O3)cc1	-9	x	x

No.	Arrestin-AP2 inh	Pemphigus Ab inh
1	x	x
2	30	107
3	-1	80*
4	x	x
5	-2	99
6	10	88*
7	2	104
8	22	50*
9	x	x
10	x	x

A different layout for some results above:
| nr | Yeast UUG start | Rce1 inhib | Tb MetRS inh | Arrestin-AP2 inh | Pemphigus Ab inh | compound |
| --- | --- | --- | --- | --- | --- | --- |
| 3 | 3 | i | 0 | -1 | 80* | O=C(O)c1ccc(-c2ccc(/C=C3\NC(=O)N(Cc4ccc(Cl)cc4)C3=O)o2)cc1Cl |
| 9 | -23 | x | x | x | x | O=C(NCC[C@H]1CC[C@@H](NC(=O)C2CC2)[C@@H](CO)O1)c1ccc(F)cc1 |

(next part)
No.	Compound	Yeast UUG start	Rce1 inhib	Tb MetRS inh
11	O=C(CS(=O)(=O)c1ccccc1)Nc1ccc(Br)cn1	9	i	-2
12	O=C(CS(=O)(=O)c1ccccc1)Nc1ccccn1	x	i	0
13	CCCSc1nc(N)c(C#N)c(-c2ccc(C)cc2)c1C#N	-20	i	-1
14	C=CCSc1nc(N)c(C#N)c(-c2ccccc2)c1C#N	-18	i	0
15	Cc1nc(N)c(Cc2ccccc2F)c(N)n1	x	i	0
16	CCc1cc2c(=O)oc(-c3ccccc3F)nc2s1	-31	i	2
17	Cc1cc2c(=O)oc(-c3ccccc3Br)nc2s1	x	i	0
18	O=C1/C(=C/C=C/c2ccco2)SC(=S)N1c1ccc(O)cc1	x	i	1
19	CC(C)C(C(=O)O)N1C(=O)/C(=C/C=C/c2ccco2)SC1=S (stereo not given)	x	i	0
20	CC(C)OC(=O)CSc1nc2c(cc1C#N)CCCCC2	-18	i	-1

No.	Arrestin-AP2 inh	Pemphigus Ab inh
11	5	59*
12	6	87
13	-9	x
14	-2	81*
15	36	24*
16	23	79*
17	12	133
18	34	78*
19	13	76*
20	12	87*

Next part:
No.	Compound	Yeast UUG start	Rce1 inhib	Tb MetRS inh
21	Cc1cc(C)n(-c2nc3ccccc3c(=O)n2OCC(=O)N(C)C)n1	-9	+	-1
22	COc1ccc(C2c3c(ncn(CCCO)c3=N)Oc3ccc4ccccc4c32)cc1 (stereo not given)	-10	+	-1
23	COc1ccc(C2c3c(ncn(CCCO)c3=N)Oc3ccc4ccccc4c32)cc1OC (stereo not given)	-2	i	0
24	Cc1ccc2c(c1)sc[n+]2Cc1ccccc1	-7	+	-1
25	CCC(=O)N(C)C[C@H]1Oc2ncc(-c3ccccc3F)cc2C(=O)N([C@@H](C)CO)C[C@H]1C	3	x	x
26	CC(C)NC(=O)N1[C@@H](CO)[C@@H]2c3ccccc3N(C)C[C@@H]21	-6	x	x
27	CCOc1ccc(-c2nc(N)ncc2Oc2ccccc2Br)c(O)c1	-19	i	0
28	CCC(C)(C)c1ccc(OCCCC[n+]2cccc(C)c2C)c(C(C)(C)CC)c1	-1	+	-1
29	CCC(C)(C)c1ccc(OCCCC[n+]2ccc(C)cc2)c(C(C)(C)CC)c1	x	i	x
30	S=c1nc[nH]c2c1cnn2-c1ccccc1	-10	+	0

No.	Arrestin-AP2 inh	Pemphigus Ab inh
21	15	108
22	-2	110
23	37	110
24	32	97
25	x	x
26	x	x
27	-3	23*
28	9	124
29	x	x
30	0	116

Next results:
No.	Compound	Yeast UUG start	Rce1 inhib	Tb MetRS inh
31	Nc1ncnc2c1cnn2-c1ccccc1	-8	i	0
32	COCC(=O)N(C)C[C@@H]1Oc2ncc(C#C[C@H](C)O)cc2C(=O)N([C@H](C)CO)C[C@H]1C	-5	x	x
33	Cc1ccc(SCC(=O)N(C)C2CCS(=O)(=O)C2)cc1 (stereo not given)	x	i	1
34	Cc1ccc(-c2nc(SCC(=O)N(C)C3CCS(=O)(=O)C3)[nH]c2-c2ccc(C)cc2)cc1 (stereo not given)	-10	+	0
35	CCOC(=O)C[C@H]1c2ccccc2S(=O)(=O)N1Cc1cc(OC)c(OC)c(OC)c1	-13	+	0
36	C=CCn1c(O)c(N=NC(=S)Nc2ccccc2F)c2ccccc21	x	i	0
37	Cc1ccc(Cn2c(O)c(N=NC(=S)Nc3ccccc3F)c3ccccc32)cc1	x	i	-1
38	CCCCNC(=S)N=Nc1c(O)n(Cc2ccccc2)c2ccccc12	x	+	0
39	NC(=S)N=Nc1c(O)n(Cc2ccccc2)c2ccccc12	-17	i	1
40	Oc1c(N=NC(=S)Nc2ccccc2F)c2ccccc2n1Cc1ccccc1	-8	i	-1

No.	Arrestin-AP2 inh	Pemphigus Ab inh
31	-4	99
32	x	x
33	-6	100
34	3	106
35	11	93
36	16	3.1*
37	49	100
38	-8	97
39	-3	88
40	-3	98

Remaining list, next part.
No.	Compound	Yeast UUG start	Rce1 inhib	Tb MetRS inh
41	Oc1c(N=NC(=S)Nc2ccccc2F)c2ccccc2n1Cc1ccccc1Cl	-4	+	-1
42	CC(=O)C1=C(O)CC(c2ccccc2)CC1=NCCc1c(C)[nH]c2ccc(C)cc12 (stereo not given)	-1	i	-1
43	O=C(Cn1cnc2ccccc2c1=O)Nc1nc2ccccc2s1	x	i	0
44	CCc1ccc2nc(NC(=O)Cn3cnc4ccccc4c3=O)sc2c1	-13	i	0
45	COc1ccc(CN(C)C[C@H]2Oc3ccc(NS(=O)(=O)c4ccccc4)cc3CC(=O)N([C@@H](C)CO)C[C@H]2C)cc1	3	x	x
46	COc1ccc(OC)c(/C=N/c2oc(-c3ccco3)c(-c3ccco3)c2C#N)c1	-8	+	0
47	C[C@@H]1CN([C@@H](C)CO)C(=O)Cc2cc(NC(=O)Nc3cccc4ccccc34)ccc2O[C@H]1CN(C)C(=O)Nc1ccc2c(c1)OCO2	-9	x	x
48	O=C1CSC(c2ccncc2)N1Cc1ccco1 (stereo not given)	-4	i	-1
49	COc1ccc(NC(=O)N(C)C[C@@H]2Oc3c(NS(=O)(=O)c4cn(C)cn4)cccc3C(=O)N([C@@H](C)CO)C[C@H]2C)cc1	-3	x	x
50	Cn1c(=O)oc2cc(S(=O)(=O)N3CCC(C(=O)NCC4COc5ccccc5O4)CC3)ccc21 (stereo not given)	-20	x	0
51	CC(C)CNC(=O)Nc1ccc(F)c(Cl)c1	x	+	-1
52	O=C(Nc1cc(Cl)ccc1Cl)c1ccc(OC(=O)c2ccco2)cc1	-22	i	-1

No.	Arrestin-AP2 inh	Pemphigus Ab inh
41	-4	101
42	0	-12*
43	-6	65*
44	-2	98
45	x	x
46	2	95
47	x	x
48	6	80*
49	x	x
50	7	-15*
51	2	87
52	20	65*

Compound activity as filed in PubChem BioAssay.
